Yeast mating assay B: variants of the scFv Ab-14

From the AlphaSeq antibody data of Li et al. 2023 (doi:10.1038/s41467-023-39022-2), copy in the FLAb collection.

Binding partner: SARS-CoV-2 spike HR2 peptide, sequence PDVDLGDISGINAS.

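Designed CDR sequences, proposed from the first random library and measured here. Group labels follow the data file (Ctrl: baseline library sampled from a position-specific scoring matrix, with some repeated check sequences; Rand: our label for a block that the file lists under HC and that is probably the random mutants of the ten best first-round binders; En: ensemble of fine-tuned language models; GP: Gaussian process model; HC: hill climbing; Gen: genetic algorithm; Gibbs: Gibbs sampling; a sequence that several methods proposed may carry one label only). Affinity was read by AlphaSeq, a pooled yeast mating assay with surface-displayed partners. The frequency of each diploid, read from paired DNA barcodes, reflects how well the two displayed proteins bind. Scores were corrected for input abundance and mapped to Kd with protein pairs of known affinity run in the same pool. Each pool was mated in six replicate cultures.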

Each scFv is VH, three GGGGS repeats, VL, as in the parent Ab-14, and differs from it in the CDRs of the light chain only.
VH: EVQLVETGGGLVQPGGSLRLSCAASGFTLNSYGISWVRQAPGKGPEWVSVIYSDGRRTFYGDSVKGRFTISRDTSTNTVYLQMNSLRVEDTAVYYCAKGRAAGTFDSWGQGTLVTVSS
VL: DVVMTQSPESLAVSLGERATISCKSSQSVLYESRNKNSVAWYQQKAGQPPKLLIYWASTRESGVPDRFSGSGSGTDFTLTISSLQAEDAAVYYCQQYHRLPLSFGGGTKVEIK

Variants are written as CDR1, CDR2 and CDR3 of the light chain (limits as in the source). Parent: KSSQSVLYESRNKNSVA, WASTRES, QQYHRLPLS.
Kd is apparent (estimated from mating counts) and averaged on the log scale over replicates with a signal. Smaller is tighter.
Where no diploid with the target was found in any replicate, the entry reads "nd": below detection, most likely a poor binder, though not proof of it.
The authors averaged sequences with at least three values out of six and counted those with two or fewer as poor binders.
A sequence measured in both rounds can read differently, since the two assays cover different ranges.
The parent sequence was in this pool as ten entries: three were never detected, three once, and four in most replicates, with averages from 2.2 nM to 240 nM.
As a blank, each scFv also met three strains without target: over all light chain designs, 4% of these pairings were detected, typically at 430 nM and seldom below 38 nM. For each scFv, signals with the empty controls are counted beside the result.

KLRQLTHIESFNKNNVA | EMTTREA | QSYDRLPLS [En_HC]: 23 nM (6 of 6 replicates; controls 0 of 18).
KLSQVTGHLSVEKNNVA | EMETREN | QQYDRLPLS [En_Gen]: 69 nM (5 of 6 replicates; controls 0 of 18).
KSSQSWLYESRNKNSVA | NASQRES | QQYHRLPLS [GP_Gen]: 590 pM (6 of 6 replicates; controls 0 of 18).
KLQFSELYESRNKNSVA | EASTRES | QQYHRLPLS [GP_Gen]: 2.9 nM (6 of 6 replicates; controls 0 of 18).
KSSISYLYESENKDSVA | EASQRES | QQYHRLPLS [GP_HC]: 12 nM (6 of 6 replicates; controls 0 of 18).
KIQPHLQQSFASKNNVA | DRQLSAE | QQYNRLPLV [En_Gibbs]: 3.0 nM (6 of 6 replicates; controls 0 of 18).
TLMHHQDYQDEWKKSIA | NAIIRER | QQYSRLPLA [En_Gibbs]: 22 nM (6 of 6 replicates; controls 1 of 18).
TIGPMLMTESHQKNNVA | GMQTRER | QQYHRLPLS [En_HC]: 73 nM (6 of 6 replicates; controls 2 of 18).
HIQGYFTMPENANNNIA | DKHYQVR | QQYYRLPLA [En_Gibbs]: 20 nM (3 of 6 replicates; controls 0 of 18).
KLSQSVLYESRNKNSVA | NASTRMM | QQYHRLPLS [GP_Gen]: 1.9 nM (6 of 6 replicates; controls 1 of 18).
KWSWSWLLESRWKNSVA | NASLRES | QQYHRLPLS [GP_Gibbs]: 47 nM (5 of 6 replicates; controls 0 of 18).
TLGTSTLEESRNKNSVA | EMSLREA | QSYNRLPLS [En_HC]: 93 nM (6 of 6 replicates; controls 0 of 18).
NISESMYFQTRMKNNIA | EVSTRER | QHYHRLPLS [En_HC]: 5.2 nM (6 of 6 replicates; controls 1 of 18).
KIGMTLNQLQHKKNNVA | DLVMREN | QQYFRLPLS [En_Gen]: 67 nM (4 of 6 replicates; controls 1 of 18).
IVSQLMLWGLHAKNSIA | EAQTRFN | QQYERLPLF [En_Gen]: nd (0 of 6 replicates; controls 0 of 18).
KLAMYLEMWARTKHAIA | NANLKTS | QQYNRLPIS [En_Gibbs]: nd (0 of 6 replicates; controls 0 of 18).
KSSMSVLYESRWKNSVA | DASTRES | QQYHRLPLS [Ctrl]: 1.3 nM (6 of 6 replicates; controls 0 of 18).
KLSQSVLYESRNKNSVA | NASTRES | QQYHRLPLL [GP_Gen]: 1.4 nM (6 of 6 replicates; controls 0 of 18).
MISQSFLIGMKAKNSVA | QTNTRTE | QQYDRLPLI [En_HC]: 3.2 nM (6 of 6 replicates; controls 0 of 18).
KIFYRQEEDIRHESSIA | NGMARVK | QQYYMLPLS [En_Gibbs]: 4.7 nM (6 of 6 replicates; controls 0 of 18).
KISQMIRVGSTHGNSIA | EEVTRAK | QQYHRLPLA [En_Gen]: 43 nM (5 of 6 replicates; controls 2 of 18).
FITGNSDNLYQDESSVA | ETNQIRE | QQYALLPLS [En_Gibbs]: 37 nM (2 of 6 replicates; controls 0 of 18).
KFSQSWWYESRVKNNVA | NASQRES | QQYHRLPLS [GP_Gibbs]: 1.3 nM (6 of 6 replicates; controls 0 of 18).

Further variants, results first:

Result 9.4 nM (6 of 6 replicates; controls 0 of 18), variant KSSQSVLYESRNKNSVA | SASTRYS | QQYHRLPLS [Ctrl].
Result 850 pM (6 of 6 replicates; controls 0 of 18), variant KLNMLTGLETKNRNSVA | QMTTREE | QQYNHLPLS [En_Gen].
Result 1.1 nM (6 of 6 replicates; controls 0 of 18), variant HLSDSMLYESRNKNSVA | NASTRES | QQYHRLPLN [GP_HC].
Result 2.0 nM (6 of 6 replicates; controls 0 of 18), variant TISQMTSLFSQSINNVA | EVSTREP | QQYDRLPLI [En_Gen].
Result 10 nM (6 of 6 replicates; controls 0 of 18), variant QISGITGHQSMSKNNVA | EMETREN | QQYDRLPLS [En_Gen].
Result 600 pM (6 of 6 replicates; controls 0 of 18), variant KESQSEPYESRNKNSVA | NAMQRMS | QQYHRLPLS [GP_Gibbs].
Result 150 nM (3 of 6 replicates; controls 1 of 18), variant TIGSTLMYGSRNRSNVA | EVSERLN | QQYDRLPLI [En_Gen].
Result 4.8 nM (6 of 6 replicates; controls 1 of 18), variant KIYQNMGETQRNKNSVA | EVSTVPS | QQYWRLPLS [En_HC].
Result 870 pM (6 of 6 replicates; controls 2 of 18), variant KVSQSVPYESRNKNSVA | DASTRCS | QQYHRLPLS [GP_Gen].
Result 4.1 nM (6 of 6 replicates; controls 1 of 18), variant KSSQYVLYESRNKNSVA | GASTRES | QQYHRLPLS [Ctrl].
Result 11 nM (6 of 6 replicates; controls 0 of 18), variant KTSQSVLYEERNKNSVA | AASCRES | QQYHRLPLS [Ctrl].
Result 3.1 nM (6 of 6 replicates; controls 0 of 18), variant KVLQSVLYEGRNKNSVA | NASTRED | QQYHRLPLS [GP_HC].
Result 2.3 nM (6 of 6 replicates; controls 1 of 18), variant TISTSMRYESSLKNAIA | NAQTREE | QQYHRLPIS [En_HC].
Result 30 nM (1 of 6 replicates; controls 0 of 18), variant KSLQSVLYESRNKNSVA | HKRTRED | QQYHRLPLS [Rand].
Result 1.4 nM (6 of 6 replicates; controls 1 of 18), variant KVSQSMDYESRNVNSVA | NASTRLK | QQYHRLPLS [GP_Gibbs].
Result 8.8 nM (6 of 6 replicates; controls 0 of 18), variant KYSQVYLYESRNKNSVA | GASTRES | QQYHRLPLS [GP_HC].
Result 1.2 nM (6 of 6 replicates; controls 2 of 18), variant KVSQCNLGESRMKNSVA | HASQRES | QQYHRLPLS [GP_Gibbs].
Result 4.3 nM (6 of 6 replicates; controls 3 of 18), variant KISSLTTYESVNKNSVA | EMSTRPS | QSYHRLPLS [En_HC].
Result 840 pM (6 of 6 replicates; controls 1 of 18), variant KDSQEKLYESRNKNSVA | DASTRES | QQYHRLPLS [GP_HC].
Result 9.6 nM (6 of 6 replicates; controls 0 of 18), variant HITMGMYVSGRHHSNIA | QAETREK | QQYDRLPLI [En_Gen].
Result 440 pM (6 of 6 replicates; controls 0 of 18), variant KLSQSWLYESRNKNSVA | SGSTRES | QQYHRLPLS [GP_HC].
Result 15 nM (6 of 6 replicates; controls 0 of 18), variant MISQLWNMGSFAINSVA | QASQRNE | QQYDRLPLM [En_Gen].
Result 6.6 nM (6 of 6 replicates; controls 2 of 18), variant KSSQSALYESTNKNSVA | GASTRES | QQYHYLPLS [Ctrl].
Result 45 nM (5 of 6 replicates; controls 1 of 18), variant MIAQGLRGVGRNKNSVA | NAQTRED | QHYHRLPLS [En_HC].